# Where “and” joins values, the source holds several entries; their conditions need not be identical. Equal entries are not always repeated.
# What was measured:
# wt His6-AspH315-758 = tested on: T1, wt His6-AspH315-758; assay: Steady-state kinetics of wt AspH by SPE-MS; type: biochemical, human; details: pH 7.5
# T1 construct: Conditions: 0.1 μM wt His6-AspH315-758 using; His6 (N); made in house
# Procedure: Supporting Figure S4. Kinetic parameters for wt AspH (continues on the following page). Turnover numbers (kapp) and Michaelis constants (Kapp) of wt AspH were determined in i ndependent triplicates for 2OG and […]
# ammonium iron(II) sulfate hexahydrate (FAS, (NH 4)2Fe(SO 4)2·6H2O), both in the presence and absence of L - ascorbic acid (LAA ) monitoring the AspH-catalysed hydroxylation of the hFX-EGFD186-124-4Ser peptide (Supporting Figure S2a) by SPE-MS (SPE-MS parameters are given in Section 2 of the Supporting Information).
# Note that the hFX-EGFD186-124-4Ser peptide substrate cannot be detected by SPE-MS at low concentrations, hampering an accurate determination of its wt AspH Km-value. Conditions: 0.1 μM wt His6-AspH315-758 using […]
# variable concentrations of 2OG, FAS, and hFX-EGFD186-124-4Ser, respectively, in 25 mM HEPES (pH 7.5, 20° […]
# C; note, to increase enzyme activity, 50 mM NaCl was added to the reaction buffer). Measurement times were normalized to the first sample injection analysed after the addition of the Enzyme Mixture to the Substrate Mixture (t = 0 s), by which time low levels of hydroxylation were manifest. Data are shown as the mean average of three independent runs (n = 3; mean ± standard deviation, SD). Turnover numbers (kapp) were calculated from the […]
# H725A His6-AspH315-758 = target: T2, H725A His6-AspH315-758 (Homo sapiens, UniProt Q12797, H725A); assay: Steady-state kinetics of H725A AspH by SPE-MS; type: biochemical; details: fold greater than that of wt AspH
# T2 construct: containing H679A or H725A His6-AspH315-758 variant (0.2 μM); made in house; host or cells: E. coli BL21 (DE3), pET-28a(+)
# T2 sequence (Q12797 315-758 H725A): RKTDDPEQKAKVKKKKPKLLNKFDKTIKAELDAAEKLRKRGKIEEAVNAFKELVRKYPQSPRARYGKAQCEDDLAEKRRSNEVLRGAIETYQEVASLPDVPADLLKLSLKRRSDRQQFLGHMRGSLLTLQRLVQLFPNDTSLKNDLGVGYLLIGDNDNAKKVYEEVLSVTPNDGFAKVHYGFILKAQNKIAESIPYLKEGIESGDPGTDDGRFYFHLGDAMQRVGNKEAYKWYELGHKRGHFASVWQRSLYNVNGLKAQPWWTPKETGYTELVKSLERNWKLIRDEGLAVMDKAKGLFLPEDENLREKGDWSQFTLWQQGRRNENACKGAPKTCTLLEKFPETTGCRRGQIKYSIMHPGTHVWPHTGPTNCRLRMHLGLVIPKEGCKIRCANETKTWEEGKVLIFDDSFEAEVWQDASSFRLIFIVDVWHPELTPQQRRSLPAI
# Procedure: page 11: Supporting Figure S6. Kinetic parameters for […] AspH (continues on the following page). Turnover numbers (kapp or k ) and Michaelis constants (Kapp or K ) of the […] AspH-catalysed hydroxylation of […] peptide by SPE- MS (SPE-MS parameters are given in Section 2 of the Supporting Information). […] HEPES (pH 7.5, 20° C). […] Data are shown as the mean average of three independent runs (n = 3; mean ± standard deviation, SD). Turnover numbers (kapp or k ) were calculated from the maximum velocities (vapp or v ) values obtained, cat cat max max assuming ideal active site availability as supported by a reported active site titration of wt AspH.[4] (a) Time course of the […] AspH for Fe(II) in the absence of LAA; (c) Kapp of […] AspH for Fe(II) in the absence m of LAA. (d) Time course of the […] AspH for Fe(II) in the presence of LAA; (f) Kapp of […] AspH for Fe(II) in the m presence of LAA. […] AspH variant-catalysed hydroxylation reaction of […] (k) hydroxylation rates used to determine kinetic parameters of […] AspH for […]. […] AspH for […] peptide substrate. […]
smiles,measurement,setting,value
"O=C(O)CCC(=O)C(=O)O [2OG, 2‐oxoglutarate]",Kmapp,wt His6-AspH315-758,≈ 1.1 μM and 1.1±0.4 μM
same,kcatapp,wt His6-AspH315-758,0.31 ± 0.03 s⁻¹
same,"Kmapp‐value for 2OG, H725A AspH relative to wt AspH",H725A His6-AspH315-758,≈ 200 times
